The target of the test is rat A2a-adenosine receptor (Rattus norvegicus, UniProt P30543). The test can be described thus: Agar plate growth bioassay, yeast expressing A2a-adenosine receptor (LY595).

The chains behind the UniProt entries cited, without tags or fusion partners.
UniProt P30543, whole entry: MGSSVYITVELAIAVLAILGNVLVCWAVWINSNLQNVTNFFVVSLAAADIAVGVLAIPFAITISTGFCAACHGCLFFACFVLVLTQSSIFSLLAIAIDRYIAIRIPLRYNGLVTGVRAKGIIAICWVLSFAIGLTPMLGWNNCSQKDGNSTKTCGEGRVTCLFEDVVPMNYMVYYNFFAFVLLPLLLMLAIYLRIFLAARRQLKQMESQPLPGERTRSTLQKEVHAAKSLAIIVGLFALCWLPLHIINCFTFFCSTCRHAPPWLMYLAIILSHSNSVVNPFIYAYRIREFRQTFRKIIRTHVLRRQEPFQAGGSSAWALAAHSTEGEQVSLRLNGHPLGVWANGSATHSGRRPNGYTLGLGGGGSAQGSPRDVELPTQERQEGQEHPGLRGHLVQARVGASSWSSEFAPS

The values below come from patent US6607906B1, “Heterologous G protein coupled receptors expressed in yeast, their fusion with G proteins and use thereof in bioassay” (priority 1994, dated 2003).

Take “met-enkephalin: an opiate receptor agonist”: the growth response entry is reported as “not observed”.
